Laboratory results: patent US20200283493A1, “Novel Insulin Derivatives and the Medical Uses Hereof” (Novo Nordisk A/S, priority 2015, published 2020)

Experiments:
[1] = Chemical stability: purity by reverse phase chromatography (UPLC); type: physicochemical; conditions: zinc-free formulation
Method: (§1) Zinc-free insulin analogues were dissolved in aqueous solution, which in the final formulation contained 0.6 mM insulin analogue, 16 mM m-cresol, 16 mM phenol, and appropriate amounts of nicotinamide and glycerol, and the pH was adjusted to 7.3-7.5 (measured at room temperature) using 1 N hydrochloric acid/1 N NaOH. Water was added to the final volume and the solution was sterile-filtered through a 0.2 μm filter. The formulation was filled into 2 ml vials and sealed using crimp caps.
Elution was performed with a mobile phase consisting of the following: A: 10% (v/v) acetonitrile, 100 mM di-ammonium hydrogen phosphate, pH 3.6, and B: 80% (v/v) acetonitrile. […] Each analogue preparation was incubated at 5, 25 and 37° C. in 2 ml vials. At defined times the insulin related impurities of the preparations was measured.

[2] = Chemical stability: HMWP by size exclusion chromatography; type: physicochemical; conditions: zinc-free formulation
Method: as §1
Each analogue preparation was incubated at 5, 25 and 37° C. in 2 ml vials.

[3] = Subcutaneous PK profile in Sprague Dawley rats; type: in vivo; conditions: sc 25 nmol/kg, +3Zn/hex formulation
Method: In order to compare the profiles of the insulin derivatives of the invention to the profiles of the analogues of the prior art, the analogues of the invention are tested in this protocol using zinc-free formulations, and the analogues of the prior art are tested using 3 zinc ions per hexamer. This is to obtain the fastest PK profiles obtainable in clinically useful (i.e. chemically and physically stable) formulations.
Male Sprague-Dawley rats, ˜400 grams, are used for these experiments. The rats are not fasted prior to testing. During the three hours study period, the rats have free access to water but not to food. […] The rats are dosed subcutaneously (25 nmol/kg; 600 μM formulation of insulin derivative) in the neck using a NovoPen Echo® mounted with a Softfine® 12 mm needle. Plasma concentrations of glucose and insulin derivatives are quantified using a BIOSEN analyser and immuno assays/LCMS analysis, respectively.

[4] = ThT fibrillation assay, physical stability of zinc-free preparations; type: physicochemical; conditions: zinc-free Formulation A (2.0% glycerol), 37° C., 960 rpm
Method: as §1
Samples were prepared freshly before each assay.
The temperature was adjusted to 37° C. […] Fluorescence measurement was done using excitation through a 444 nm filter and measurement of emission through a 485 nm filter. […] Between each measurement, the plate was shaken and heated as described.

Substance: B29K(N(eps)hexadecanedioyl-Glu-2×OEG), desB30 Human Insulin [PA 1]
- Purity delta-value from start, 2 weeks 37° C. ([1]; 2 weeks 37° C.): (−8.5%)
- Purity, 2 weeks 37° C. ([1]; 2 weeks 37° C.): 86.0%
- Purity delta-value from start, 5 weeks 37° C. ([1]; 5 weeks 37° C.): (−19.2%)
- Purity, 5 weeks 37° C. ([1]; 5 weeks 37° C.): 75.3%
- Purity, Start ([1]; start): 94.5%
- HMWP content, 2 weeks 37° C. ([2]; 2 weeks 37° C.): 3.7%
- HMWP delta-value from start, 2 weeks 37° C. ([2]; 2 weeks 37° C.): (+1.5%)
- HMWP content, 5 weeks 37° C. ([2]; 5 weeks 37° C.): 5.7%
- HMWP delta-value from start, 5 weeks 37° C. ([2]; 5 weeks 37° C.): (+3.5%)
- HMWP content, Start ([2]; start): 2.2%
- Tmax [3]: 1 h
- Lag time (h) in ThT assay [4]: 1 h
